The values below are quoted from earlier work in US20170112865A1, “TREATMENT FOR MELANOMA” (The Board of Regents of the University of Texas System, priority 2014, published 2017).

This data set relates to BRAFV600E/k mutant advanced or malignant melanoma. Particulars: MEKi class effect.

Where only a bound is given, the exact number is not on record here.

Regarding `CC(=O)Nc1cccc(-n2c(=O)n(C3CC3)c(=O)c3c(Nc4ccc(I)cc4F)n(C)c(=O)c(C)c32)c1` [Trametinib], the chorioretinopathy is less than 1% and the decreased ejection fraction was 7%.
